Measured values: patent US20230250098A1 (priority 2021, published 2023)

By UniProt entry, the sequences of proteins in these tests, tags left out. Where a name states a change or a piece, a line headed by the entry shows the natural chain unless it says otherwise.
UniProt P33534: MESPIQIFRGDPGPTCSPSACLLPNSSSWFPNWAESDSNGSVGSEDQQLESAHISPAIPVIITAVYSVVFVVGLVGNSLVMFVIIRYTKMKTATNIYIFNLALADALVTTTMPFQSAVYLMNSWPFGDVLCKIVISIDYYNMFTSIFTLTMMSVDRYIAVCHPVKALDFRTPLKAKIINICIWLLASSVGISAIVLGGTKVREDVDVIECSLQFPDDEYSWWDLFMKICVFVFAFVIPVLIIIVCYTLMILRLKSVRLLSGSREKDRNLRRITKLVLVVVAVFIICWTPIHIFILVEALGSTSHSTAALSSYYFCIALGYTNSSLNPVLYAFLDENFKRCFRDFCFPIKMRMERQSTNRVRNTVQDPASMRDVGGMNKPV
UniProt P41145: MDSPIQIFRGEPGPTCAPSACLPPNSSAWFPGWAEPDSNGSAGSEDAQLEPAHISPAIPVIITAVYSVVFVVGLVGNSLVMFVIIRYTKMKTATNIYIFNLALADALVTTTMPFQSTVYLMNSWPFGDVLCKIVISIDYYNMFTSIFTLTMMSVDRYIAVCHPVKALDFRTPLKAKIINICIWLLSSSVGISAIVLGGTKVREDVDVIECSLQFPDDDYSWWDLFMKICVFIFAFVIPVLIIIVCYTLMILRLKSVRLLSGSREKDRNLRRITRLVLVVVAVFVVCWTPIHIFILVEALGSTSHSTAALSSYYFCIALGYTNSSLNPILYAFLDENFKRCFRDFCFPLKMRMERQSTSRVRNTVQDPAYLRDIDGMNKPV

Assays:
FLAG-mouse κOP = FLAG-mouse κOP (Mus musculus, UniProt P33534); test: GloSensor cAMP inhibition assay in transfected HEK cells; format: cell-based; conditions: efficacy normalized to positive control U50,488
κOP = κOP (Homo sapiens, UniProt P41145); test: PathHunter β-arrestin2 recruitment assay; format: cell-based; conditions: normalized to positive control U50,488

## CN(C(=O)Cc1ccc(Cl)c(Cl)c1)[C@@H]1CCCC[C@H]1N1CCCC1
FLAG-mouse κOP
  cAMP α: 100
κOP
  β-arrestin 2 α: 100
